# Apparent affinities of Ab-14 variants for a coronavirus HR2 peptide

Source: Li et al. 2023 (doi:10.1038/s41467-023-39022-2), MIT Lincoln Laboratory and A-Alpha Bio; data file from the FLAb repository.

All variants were tested on one target, the spike HR2 peptide PDVDLGDISGINAS (SARS-CoV-2).

Ab-14 is the parent antibody, in scFv form: VH, then three GGGGS repeats, then VL. The heavy chain is unchanged in all variants.
VH: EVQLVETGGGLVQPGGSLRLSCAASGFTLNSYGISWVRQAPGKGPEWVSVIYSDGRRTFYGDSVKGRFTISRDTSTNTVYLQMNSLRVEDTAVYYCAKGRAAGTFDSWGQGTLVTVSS
VL: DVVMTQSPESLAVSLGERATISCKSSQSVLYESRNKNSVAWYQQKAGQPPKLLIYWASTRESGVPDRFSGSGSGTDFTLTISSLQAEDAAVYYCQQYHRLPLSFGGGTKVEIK

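These sequences belong to a second round, designed from the earlier measurements on random variants of the parent. Group labels follow the data file (Ctrl: baseline library sampled from a position-specific scoring matrix, with some repeated check sequences; En: ensemble of fine-tuned language models; GP: Gaussian process model; HC: hill climbing; Gen: genetic algorithm; Gibbs: Gibbs sampling; a sequence that several methods proposed may carry one label only). The scFvs were displayed on barcoded MATa yeast, the peptide on MATalpha yeast. The frequency of each diploid, read from paired DNA barcodes, reflects how well the two displayed proteins bind. Each replicate has its own calibration line, from reference interactions of the BCL2 family. The assay was run in six technical replicates.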

The parent's light chain CDRs are KSSQSVLYESRNKNSVA, WASTRES, QQYHRLPLS; each variant's own CDRs replace them letter for letter. This list holds designs with more than six substitutions. Kd is apparent (estimated from mating counts) and averaged on the log scale over replicates with a signal. Smaller is tighter. A pair that was not seen in any replicate is written "nd"; this usually means weak binding, but a binder can also be missed. The authors averaged sequences with at least three values out of six and counted those with two or fewer as poor binders.

The variant TISQMTSWMSNKKNNVA | EVSTREP | QQYDRLPLS [En_Gen] showed 7.3 nM (6 of 6 replicates). The variant KITGTMRFEQKASNNIA | EVEQRSK | QQYYRLPLS [En_Gen] gave 1.8 nM (6 of 6 replicates). For WLENDQFIESHKNNSVA | QGTMREA | QQYMRLPLA [En_Gibbs], the assay gave 11 nM (6 of 6 replicates). For KLGSATRFESSNKASIA | DNSTREN | QQYHRLPLS [En_HC], the assay gave 33 nM (6 of 6 replicates). With MISSISSMGQFAKNSVA | QASLRNA | QQYDRLPLI [En_Gen] the result was 21 nM (6 of 6 replicates).

The variant KVSEFMRGLTQRKDSIA | DNVTRQN | QQYDRLPLS [En_Gen] showed 10 nM (6 of 6 replicates). For KMNMAVQQDLMDEQSVA | DHMTAVT | QQYGRLPLS [En_Gibbs], the assay gave 2.4 nM (6 of 6 replicates). The variant HIDQQTSYDNGEDRAIA | DVTIRDW | QQYARLPLL [En_Gibbs] showed 27 nM (6 of 6 replicates). The variant TISQVMNTLTRQGNNVA | DLAERED | QQYFRLPLS [En_Gen] showed 3.4 nM (6 of 6 replicates). The variant SIYDATGMESRNKNPIA | DVSTRPS | QQYDRLPLS [En_HC] showed 1.9 nM (1 of 6 replicates).

The variant TMSQVHGMLSHNKNSVA | DMNTRGS | QQYDRLPLS [En_HC] gave 1.2 nM (6 of 6 replicates). The variant KLNDDFQVHERNNGSVA | DAIISEA | QQYARLPLI [En_Gibbs] showed 4.9 nM (6 of 6 replicates). The variant HISMSVGLTSFQKNSVA | ENSTREN | QQYDRLPLS [En_HC] showed 120 nM (5 of 6 replicates). The variant MISDMGLHDSRVQDSVA | NNSTREA | QQYDRLPLS [En_HC] showed 250 nM (6 of 6 replicates). With TLYGLSNSMSINKNSVA | EMTTRYD | QQYDRLPLE [En_Gen] the result was 170 nM (5 of 6 replicates).

With KLSWDCTTDLNQMHSIA | ESEVAVD | QQYAHLPLT [En_Gibbs] the result was 51 nM (6 of 6 replicates). For KVPQSWWYESRMKQSVA | NASERES | QQYHRLPLS [GP_Gibbs], the assay gave 1.0 nM (6 of 6 replicates). The variant MISETLHMLGMKKNSIA | DLVLRAN | QQYHRLPLM [En_Gen] showed 21 nM (6 of 6 replicates). The variant TLTQSVDMESHNKNSVA | DLSTRGS | QQYHRLPLS [En_HC] showed 1.1 nM (6 of 6 replicates). The variant MMSQVTGMGQRHRNNVA | QTSEREI | QQYDRLPLI [En_Gen] gave 15 nM (6 of 6 replicates).

The variant KLGYTSYGEVNGQHNIA | EMDQLTF | QQYSHLPLS [En_Gibbs] showed 1.5 nM (6 of 6 replicates). The variant FLHGNIEYGNKNWSAIA | ENTIRVD | QYYQHLPLA [En_Gibbs] gave 370 nM (6 of 6 replicates). With GVTHTMESAQQAPNSIA | NAEQTTI | QQYQRLPLS [En_Gibbs] the result was 4.9 nM (6 of 6 replicates). The variant HMSQSWLMESRNSNSVA | EASTRLS | QQYHRLPLS [GP_Gibbs] gave 3.6 nM (6 of 6 replicates). With QLGASFDMTSKNKNSVA | EQSTRGN | QQYHRLPLS [En_HC] the result was 1.1 nM (6 of 6 replicates).

The variant KLTMITGLEKVSKNNVA | EMETRER | QQYNRLPLS [En_Gen] showed 3.2 nM (6 of 6 replicates). The variant HMNHEFYGYWNYEQAIA | HESQRLY | QQYSRLPLS [En_Gibbs] gave 1.1 nM (6 of 6 replicates). The variant KSSQSVLYESEFHNSVA | NAVTRES | QQYHRLPTR [Ctrl] gave 1.3 µM (3 of 6 replicates). With MISQLMNMGTFAINSVA | QASIRNE | QQYDRLPLI [En_Gen] the result was 2.8 nM (6 of 6 replicates). With HMSMLTLGGMRQKNSVA | QMTTREN | QQYDRLPLM [En_Gen] the result was nd (0 of 6 replicates).

The variant KVAELYEMGENFQSSIA | SGAHKVH | QQYYRLPLG [En_Gibbs] showed 2.4 nM (6 of 6 replicates). The variant MVNGIMDHLSKQRNNVA | ETETRES | QQYDRLPLS [En_Gen] showed 3.3 nM (6 of 6 replicates). With KAMQMVWQESRNKNSVA | NASTRMQ | QQYHRLPLS [GP_Gibbs] the result was 890 pM (6 of 6 replicates). The variant KISMLSRYESQNKNSIA | EMSRREN | QQYHRLPLS [En_HC] gave 2.4 nM (6 of 6 replicates). For MLDNCQAGYYQKNNNIA | EMNMRRY | QQYGRLPLS [En_Gibbs], the assay gave 98 nM (6 of 6 replicates).

The variant IVSQLMIWGMHAKNSIA | EAETRGN | QQYDRLPLF [En_Gen] gave 49 nM (6 of 6 replicates). For MLSQMTGLGMKAKNSVA | QASMRFN | QQYHRLPLV [En_Gen], the assay gave 26 nM (6 of 6 replicates). The variant KLQNFSQEDNKMWNNIA | DTTMVHT | QQYMTLPLE [En_Gibbs] showed 8.7 nM (6 of 6 replicates). The variant MVTQMAMTGMKNKRSVA | NAETREK | QQYNRLPLI [En_Gen] showed 17 nM (6 of 6 replicates).

Excerpt, the first 3 entries:

CDR-L1	CDR-L2	CDR-L3	group	Kd (apparent)	replicates with signal
TISQMTSWMSNKKNNVA	EVSTREP	QQYDRLPLS	En_Gen	7.3 nM	6 of 6
KITGTMRFEQKASNNIA	EVEQRSK	QQYYRLPLS	En_Gen	1.8 nM	6 of 6
WLENDQFIESHKNNSVA	QGTMREA	QQYMRLPLA	En_Gibbs	11 nM	6 of 6

The parent sequence was in this pool as ten entries: three were never detected, three once, and four in most replicates, with averages from 2.2 nM to 240 nM. The range of this assay differs from that of the first round, and the authors advise against merging the two. Three control strains display no target. For all light chain designs, 4% of the pairings with them gave a signal, with a median of 430 nM and one signal in twenty below 38 nM, so weak values seen in few replicates may be background.